Data on one substance can be found in patent publication US9505753B2, “Inhibitors of D-amino acid oxidase” (THE JOHNS HOPKINS UNIVERSITY, priority 2012, dated 2016).

Chains of the proteins cited; added tags and fusions are not shown. Lines headed by an entry give the natural chain unless they say otherwise; changes in a name come on top.
UniProt P14920: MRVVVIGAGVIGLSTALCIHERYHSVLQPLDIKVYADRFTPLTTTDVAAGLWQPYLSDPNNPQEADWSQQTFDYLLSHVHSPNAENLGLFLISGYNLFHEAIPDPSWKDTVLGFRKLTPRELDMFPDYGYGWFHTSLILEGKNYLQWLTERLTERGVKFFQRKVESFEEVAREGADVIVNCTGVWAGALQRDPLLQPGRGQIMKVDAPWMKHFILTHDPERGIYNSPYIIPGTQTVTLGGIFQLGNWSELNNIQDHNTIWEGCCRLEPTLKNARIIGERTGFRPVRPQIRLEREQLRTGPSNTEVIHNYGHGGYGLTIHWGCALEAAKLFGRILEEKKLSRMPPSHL

This assay has as its target human recombinant D-amino acid oxidase (Homo sapiens (Human), UniProt P14920). Kind of assay: In vitro D-amino acid oxidase (DAAO) assay, 96-well plate. Format: biochemical. The conditions noted are these: D-serine 5 mM, FAD 1 μM, 20 min, room temperature, Tris buffer pH 8.5, read-out: Inhibition of DAAO IC50. As to the method:
A reliable 96-well plate D-amino acid oxidase (DAAO) assay was developed based on previously published reports (J. Biol. Chem. 277: 27782 (2002)). […] All reactions were carried out for 20 min at room temperature in a 100-μL volume in Tris buffer (50 mM, pH 8.5). Additionally, stock solutions and serial dilutions of potential DAO inhibitors were made in 10:90 DMSO:buffer with a final assay DMSO concentration of 1%.

Take “6-Hydroxy-2-(perfluorophenyl)ethyl-1,2,4-triazine-3,5(2H,4H)-dione [Compound 10m]”: the IC50 (usually the concentration at which inhibition is half-maximal) was found to be 0.2 µM.
